scFv variants of Ab-14 (light chain) against a SARS-CoV-2 spike peptide

The measurements come from Engelhart et al. 2022 (doi:10.1038/s41597-022-01779-4) through the FLAb antibody collection.

All variants were tested on one target, the spike HR2 peptide PDVDLGDISGINAS (SARS-CoV-2).

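The parent was found by panning a naive human phage display library on the peptide. AAYL50 was designed without a model: most single CDR substitutions and a random sample of double and triple ones. The scFvs were displayed on barcoded MATa yeast, the peptide on MATalpha yeast. Pairs that bind mate more often; barcode pairs of the diploids are counted by sequencing. Scores were corrected for input abundance and mapped to Kd with protein pairs of known affinity run in the same pool. Mating was done three times.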

Parent: Ab-14, a human scFv built as VH, the linker GGGGSGGGGSGGGGS, VL. Only the CDRs of the light chain vary.
VH: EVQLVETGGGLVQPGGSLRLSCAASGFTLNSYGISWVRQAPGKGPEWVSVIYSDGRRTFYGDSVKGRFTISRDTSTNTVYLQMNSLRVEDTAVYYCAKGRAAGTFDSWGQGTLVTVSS
VL: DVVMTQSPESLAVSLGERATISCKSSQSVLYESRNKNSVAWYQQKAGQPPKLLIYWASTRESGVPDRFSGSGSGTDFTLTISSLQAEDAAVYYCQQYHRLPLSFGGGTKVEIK

The parent's light chain CDRs are KSSQSVLYESRNKNSVA, WASTRES, QQYHRLPLS; each variant's own CDRs replace them letter for letter. Affinities are written as log10 Kd with Kd in nM; a lower number is a better binder. "n.d." means that the variant was in the library but no mating with the target was seen in that replicate; the authors take this as a sign of poor binding, and no number exists.

CDR-L1	CDR-L2	CDR-L3	log10 Kd, replicates	empty controls
TSSTSVLYESRNKNSVA	WAPTRES	QQYHRLPLS	3.22 3.02 n.d.	2 of 9 (3.51)
KSAQSVLYESRNKGSVA	DASTRES	QQYHRLPLS	0.09 0.47 0.27	1 of 9 (3.16)
KSSQSVFYESRNKNSVA	WASTCNS	QQYHRLPLS	n.d. n.d. n.d.	2 of 9 (4.64)
KSDQSVLYESRNKNSVA	WASTRES	QQYHMLMLS	3.42 3.20 3.63	5 of 9 (3.92)
KSSHSVLYESRNMNSIA	WASTRES	QQYHRLPLS	0.74 0.79 0.69	1 of 9 (3.02)
FSQQSVVYESRNKNSVA	WASTRES	QQYHRLPLS	1.96 1.84 2.10	6 of 9 (4.07)
KSKQSVLYESRNKMSVA	WASTRES	QQHHRLPLS	n.d. n.d. n.d.	1 of 9 (5.33)
KSSQSVLYTSRNKNSVT	WTSTRES	QQYHRLPLS	2.57 2.00 2.55	2 of 9 (4.67)
KSSQSVLYESRNKNSVA	WASTREY	QQYHRLPTS	0.59 0.70 0.63	1 of 9 (4.00)
KSSQSVLYESRNKNSVA	WKSTRES	QAYLRLPLS	n.d. n.d. n.d.	1 of 9 (3.26)
KSSESVLYENRNKNSVA	WASTRKS	QQYHRLPLS	2.52 2.52 2.76	4 of 9 (5.23)
KSSQSVLYESRNKNSVM	WCSTRES	MQYHRLPLS	n.d. n.d. 3.56	3 of 9 (4.15)
KSSQSYLYESRNKNSVT	WYSTRES	QQYHRLPLS	n.d. n.d. n.d.	0 of 9
KSCQSVLYESRNKNSVA	WASTREM	QQYHRLTLS	n.d. n.d. n.d.	0 of 9
QSSQSVLYESRNCNSVA	WASTRES	QQYHELPLS	3.70 4.44 2.93	1 of 9 (4.39)
KSSQSVLYESHNNNSVW	WASTRES	QQYHRLPLS	5.71 3.76 n.d.	2 of 9 (4.37)
KSSQSRLYESRPKNSVA	WASTDES	QQYHRLPLS	n.d. n.d. 2.93	2 of 9 (4.59)
KSSQSVLYESRNKNSVA	QASCRES	QQNHRLPLS	n.d. 3.19 4.33	1 of 9 (3.39)
KSSQSVLYETRNKNSVA	WASTRES	QQQHRLPLS	n.d. 4.88 n.d.	2 of 9 (4.14)
KSSQYVLYESRNKNSVA	WASTTES	QQYHRWPLS	2.42 2.70 3.05	3 of 9 (3.48)
KSSQSVLYESRNKNSVA	WASKRES	QQYHALPDS	2.61 1.94 2.25	5 of 9 (4.20)
KSSQSVLYESRNKFSVA	WASTRES	QVYHRLPLS	n.d. n.d. n.d.	1 of 9 (3.39)
KSSQSVLCYSRNKNSVA	WASTRES	QQYHRLPLS	2.39 3.81 3.06	3 of 9 (3.03)
KSSQSVLYESRNKNTVA	WAHTRES	QQYHRLMLS	n.d. n.d. 5.31	2 of 9 (3.74)
KDSQSVLYESRNKNSVA	WASTRES	QQYHRLPLK	n.d. n.d. n.d.	0 of 9
KSSQSVLYESRNKNSVA	HASTHES	QQYHRLFLS	4.78 n.d. n.d.	0 of 9
KSSSSVLHESRNKNSVA	WASTRES	QQGHRLPLS	2.63 2.43 2.74	5 of 9 (5.33)
KSSQSVLYESRFKNSVA	WASTRCS	QQYHQLPLS	0.85 0.93 0.96	3 of 9 (5.35)
KSSQSTLYESRIKNSVA	WASTRES	QQYHRLPDS	n.d. n.d. n.d.	1 of 9 (3.84)
KSSQSVLYESMNKNSVA	WASTRES	QQYERYPLS	1.39 1.30 1.31	2 of 9 (4.94)
KSSMSVLDESSNKNSVA	WASTRES	QQYHRLPLS	-0.25 0.15 -0.09	3 of 9 (4.91)
KSWQSVPYESLNKNSVA	WASTRES	QQYHRLPLS	2.12 2.02 1.85	3 of 9 (4.03)
KSSQSLLYESRAKNSVA	WASTRLS	QQYHRLPLS	0.66 0.84 0.81	2 of 9 (5.00)
KSSQSVLYESRNKNSVA	WASHVES	QQYHRLPAS	n.d. n.d. n.d.	0 of 9
KSSMSVLYESNNKNSVW	WASTRES	QQYHRLPLS	n.d. n.d. n.d.	0 of 9
KSSQSVYYESRNDNSVA	WASTRES	QQYHRLPKS	n.d. n.d. 3.04	1 of 9 (3.44)
KSSQAVLYESRNKNSVA	WASTREH	QQFHRLPLS	3.11 3.06 3.87	1 of 9 (3.34)
KSSQSVLCTSRNKNYVA	WASTRES	QQYHRLPLS	n.d. 3.90 n.d.	0 of 9

The 4 strongest on average among those seen in every replicate, once more:

CDR-L1,CDR-L2,CDR-L3,"log10 Kd, replicates",empty controls
KSSMSVLDESSNKNSVA,WASTRES,QQYHRLPLS,-0.25 0.15 -0.09,3 of 9 (4.91)
KSAQSVLYESRNKGSVA,DASTRES,QQYHRLPLS,0.09 0.47 0.27,1 of 9 (3.16)
KSSQSVLYESRNKNSVA,WASTREY,QQYHRLPTS,0.59 0.70 0.63,1 of 9 (4.00)
KSSHSVLYESRNMNSIA,WASTRES,QQYHRLPLS,0.74 0.79 0.69,1 of 9 (3.02)

For reference, the parent read 0.65 as the reference entry and 1.68 as a member of this library. Background: pairings of library AAYL50 with three empty control strains gave a value in 18% of cases (median 4.19, 5th percentile 2.99). Values in that range, when seen in few replicates, are hard to tell from nonspecific mating. For each scFv, signals with the empty controls are counted beside the result, with their mean in brackets.